Data: patent publication US6500824B1, “Kappa (OP2) opioid receptor antagonists” (Regents of the University of Minnesota, priority 1998, dated 2002)

Chains of the proteins cited; added tags and fusions are not shown.
UniProt P33535, whole entry K303E: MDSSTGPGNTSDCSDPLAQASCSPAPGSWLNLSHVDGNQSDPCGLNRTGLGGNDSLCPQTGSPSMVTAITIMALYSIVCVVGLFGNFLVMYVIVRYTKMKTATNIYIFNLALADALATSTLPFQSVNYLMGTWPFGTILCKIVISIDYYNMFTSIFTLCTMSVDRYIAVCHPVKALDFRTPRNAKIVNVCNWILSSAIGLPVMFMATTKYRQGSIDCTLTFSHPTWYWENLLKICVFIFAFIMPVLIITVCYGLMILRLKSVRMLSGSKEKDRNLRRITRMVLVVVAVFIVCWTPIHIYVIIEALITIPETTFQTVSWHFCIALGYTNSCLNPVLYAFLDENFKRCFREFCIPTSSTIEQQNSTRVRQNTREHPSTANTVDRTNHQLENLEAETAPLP
UniProt P33535, whole entry: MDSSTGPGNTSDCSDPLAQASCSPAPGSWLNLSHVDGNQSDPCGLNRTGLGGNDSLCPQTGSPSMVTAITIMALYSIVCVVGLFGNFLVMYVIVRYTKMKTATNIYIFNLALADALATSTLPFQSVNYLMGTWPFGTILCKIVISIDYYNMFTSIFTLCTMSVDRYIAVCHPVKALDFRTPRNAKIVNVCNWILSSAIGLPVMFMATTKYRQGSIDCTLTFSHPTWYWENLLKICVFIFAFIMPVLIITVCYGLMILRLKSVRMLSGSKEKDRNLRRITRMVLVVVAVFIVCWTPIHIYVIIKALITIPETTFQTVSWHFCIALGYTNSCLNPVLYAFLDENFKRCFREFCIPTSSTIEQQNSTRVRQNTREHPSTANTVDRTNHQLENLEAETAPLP

Legend:
μ[K303E] receptor = biological target: T1, μ[K303E] receptor (Rattus norvegicus, UniProt P33535, K303E); assay: Competition binding with [3H]diprenorphine, whole cell binding, COS-7 cells, μ[K303E]; conditions: [3H]diprenorphine competition; COS-7 whole cell binding; read-out: Ki ± SEM, μ[K303E]
T1 construct: expressed in transfected cells; host or cells: COS-7 (per the earlier reading)
Source text: (§1) The effects of mutational exchange of Glu297 in the κ receptor and Lys303 in the μ receptor on the binding affinity of representative compounds of the invention were examined using techniques known in the art.

wt μ receptor = biological target: T2, wt μ receptor (Rattus norvegicus, UniProt P33535); assay: Competition binding with [3H]diprenorphine, whole cell binding, COS-7 cells, wt μ; conditions: [3H]diprenorphine competition; COS-7 whole cell binding; read-out: Ki ± SEM, wt μ
T2 construct: expressed in transfected cells; host or cells: COS-7 (per the earlier reading)
Source text: as §1

`Oc1ccc2c3c1O[C@H]1c4[nH]c5c(c4C[C@@]4(O)[C@@H](C2)N(CC2CC2)CC[C@]314)C[C@@]1(O)[C@H]2Cc3ccc(O)c4c3[C@@]1(CCN2CC1CC1)[C@H]5O4` [nor-BNI, norbinaltorphimine, reference compound] gave a Ki (μ[K303E] receptor) of 0.77 ± 0.13 nM and a Ki (wt μ receptor) of 102 ± 10.2 nM.
